## Antibody variant affinities, Ab-95 light chain, assay 2

Target: peptide PDVDLGDISGINAS, taken from heptad repeat 2 (HR2) of SARS-CoV-2 spike.

The variants keep the heavy chain, the linker and the frameworks of Ab-95 (scFv order VH, the linker GGGGSGGGGSGGGGS, VL).
VH: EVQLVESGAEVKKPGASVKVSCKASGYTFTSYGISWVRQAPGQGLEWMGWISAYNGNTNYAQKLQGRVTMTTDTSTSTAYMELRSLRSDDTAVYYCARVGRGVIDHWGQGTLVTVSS
VL: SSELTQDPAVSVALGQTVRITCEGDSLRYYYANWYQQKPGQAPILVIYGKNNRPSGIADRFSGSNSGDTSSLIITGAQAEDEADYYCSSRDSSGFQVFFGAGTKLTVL

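Library AAYL52 holds single substitutions and randomly drawn double and triple substitutions in the CDRs. The assay is AlphaSeq: two haploid yeast populations carry antibody and antigen on their surface. The frequency of each diploid, read from paired DNA barcodes, reflects how well the two displayed proteins bind. Each replicate has its own calibration line, from reference interactions of the BCL2 family. The assay was run in three technical replicates.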

Substitutions are numbered in sequence along the VL above, starting at 1 (not Kabat). Affinities are written as log10 Kd with Kd in nM; a lower number is a better binder. "n.d." means that the variant was in the library but no mating with the target was seen in that replicate; the authors take this as a sign of poor binding, and no number exists.

| changes | log10 Kd, replicates | control signals |
|---|---|---|
| R28I/N33T/V97W | 3.62 3.97 3.78 | 5/9 (4.03) |
| E23L/G49W/F98H | n.d. n.d. n.d. | 2/9 (2.69) |
| Y29D/K50E/G94K | 1.97 2.06 1.78 | 3/9 (4.87) |
| K50W/R53M/S55P | 4.20 4.33 n.d. | 2/9 (5.10) |
| Y29Q/N51S | 2.59 2.34 2.36 | 6/9 (4.33) |
| E23H/K50C | 3.56 3.44 3.58 | 3/9 (3.82) |
| D25I/Y31L/S89M | n.d. 4.17 3.99 | 2/9 (3.52) |
| R53N/S89F | 3.15 n.d. n.d. | 3/9 (4.30) |
| G24Y/G49R | 3.65 3.94 n.d. | 3/9 (3.74) |
| L27F/S89W/S92H | n.d. n.d. n.d. | 0/9 |
| R28L/Y29F/R90C | 3.46 5.15 3.25 | 4/9 (3.64) |
| E23K/N51R | 3.03 2.75 3.32 | 3/9 (4.51) |
| Y29K/K50R/V97R | 5.51 n.d. n.d. | 3/9 (4.38) |
| S26T/L27P/V97N | n.d. n.d. 3.71 | 0/9 |
| R28L/N33S/N52R | n.d. 3.61 3.61 | 3/9 (4.26) |
| R28W/Y30P/F98M | 2.93 3.21 n.d. | 3/9 (4.48) |
| Y29T/V97F | 3.28 2.37 2.32 | 0/9 |
| R53N/S88I/G94L | 3.56 2.77 n.d. | 2/9 (3.61) |
| R28Q/S88N/D91W | 2.75 3.47 2.95 | 5/9 (4.26) |
| N33Q/N52C/G94T | 4.19 3.26 3.41 | 2/9 (3.89) |
| Y31C/N33W/R90K | 4.52 n.d. n.d. | 2/9 (4.10) |
| K50C/S93R/G94F | 4.65 3.67 n.d. | 3/9 (4.29) |
| S26Q/G49N/S88D | n.d. n.d. n.d. | 0/9 |
| N52G/P54Y/S93K | n.d. 4.04 n.d. | 3/9 (4.02) |
| R28N/A32I/F95R | 2.49 2.78 2.39 | 2/9 (4.66) |
| K50N/N52A/D91F | 2.31 2.53 2.65 | 6/9 (4.80) |
| A32W/V97F | n.d. n.d. 4.15 | 3/9 (3.94) |
| S55D/D91V/Q96R | 1.91 1.87 1.13 | 3/9 (3.65) |
| G24Y/Y30W/A32K | n.d. n.d. n.d. | 2/9 (4.73) |
| D25S/K50S/Q96H | 2.81 2.89 2.41 | 4/9 (4.51) |

The closing 4 entries, repeated:

{"changes": "A32W/V97F", "log10 Kd, replicates": "n.d. n.d. 4.15", "control signals": "3/9 (3.94)"}
{"changes": "S55D/D91V/Q96R", "log10 Kd, replicates": "1.91 1.87 1.13", "control signals": "3/9 (3.65)"}
{"changes": "G24Y/Y30W/A32K", "log10 Kd, replicates": "n.d. n.d. n.d.", "control signals": "2/9 (4.73)"}
{"changes": "D25S/K50S/Q96H", "log10 Kd, replicates": "2.81 2.89 2.41", "control signals": "4/9 (4.51)"}

Empty control strains, which show no peptide, gave a signal in 28% of pairings with library AAYL52; the median was 3.91 and 95% of these signals were weaker than 2.90. No background was subtracted. Also given: how often the same scFv was detected with the empty control strains, with their mean in brackets.

Data: MIT Lincoln Laboratory AlphaSeq set, Engelhart et al. 2022, doi:10.1038/s41597-022-01779-4, as distributed in FLAb.